Patent US10611777B2, “Imidazopyridazine compounds and their use” (HUTCHISON MEDIPHARMA LIMITED, priority 2014, dated 2020)
pIC50: −log10 of the molar value.

Tested on: SU-DHL-6 cell line
Test: In vitro cell proliferation assay in SU-DHL-6 cell line
Type: cell-based
Settings: Homo sapiens; SU-DHL-6, 72 h, CCK-8

Q: How did the pIC50 turn out when `C[C@H](Nc1ncnc(N)c1C#N)c1cc2ncc(Cl)n2nc1-c1ccccc1` [Compound 4, (S)-4-amino-6-((1-(3-chloro-6-phenylimidazo[1,2-b]pyridazin-7-yl)ethyl)amino)pyrimidine-5-carbonitrile] was run?
A: The pIC50 was 9.00.
